# Patent publication US6323205A (priority 2000, dated 2001)
# Details: dog, in vivo, iv
structure (smiles),measurement,value
C#CCC(Cc1cnc2nc(N)nc(N)c2n1)c1ccc(C(=O)N[C@@H](CCC(=O)O)C(=O)O)cc1 (stereo partly shown) [10-propargyl-10-deazaaminopterin],estimated LD50,about 8 mg/kg
